Literature values, collected in patent US20230081539A1, “SUPRACHOROIDAL DELIVERY OF DRUG PARTICLES TO REDUCE TOXICITY” (The Johns Hopkins University, priority 2020, published 2023).

Conditions: cited from earlier work

For “3,6-diamino-10-methylacridinium chloride mixed with 3,6-acridinediamine [ACF]”, the water solubility is given as “highly water soluble”.
